The assay deals with BRISC (Homo sapiens, UniProt P46736+Q15018). The assay is described as follows: BRISC DUB inhibition assay with quenched K63-linked di-ubiquitin substrate (TAMRA fluorescence). The settings on record: read-out: BRISC IC50 μM Range. Here is the method:
High throughput screening. A baculoviral expression system was established to purify milligram quantities of the entire BRISC complex from insect cells. The MultiBac system was used to clone all 4 components of the BRISC complex into one vector which was then packaged into the baculovirus genome using the methods described in Zeqiraj et al., 2015 (Mol. Cell).
The assay buffer included: 50 mM HEPES-NaOH, pH 7.0; 100 mM NaCl; 1 mM DTT; 1 mg/ml BSA; and 0.03% Brij-35. BRISC was assayed at 1 nM (final concentration) with the substrate at 500 nM (final concentration). The final reaction volume was 20 μl in each 384 plate well (Corning, #3573; black, low flange, flat bottom) with a final concentration of compounds of 10 μM.
A 5 ml of enzyme solution with BRISC at 2 nM in assay buffer was made by adding 10 μl of BRISC working stock (1 μM) to 5 ml of assay buffer. A 5 ml of substrate solution was made with […] of K63-diUbiquitin (made in-house) plus […] of IQF K63-diUbiquitin by adding the appropriate volumes of diUbiquitins to 5 ml of assay buffer. 45 μL of BRISC (enzyme solution) was dispensed into columns 1-11 of a 96 well PCR plate (skirted). Buffer was only dispensed in column 12 (no enzyme control). 45 μl of substrate solution was dispensed into columns 1-12 of a 96 well PCR plate (skirted). The plate was spun down at 3000 rpm (bench top centrifuge) at room temp for 2 min to remove any air bubbles. Using a Biomek FX, liquid handler (Bekman), 10 μl of BRISC (enzyme solution) was dispensed into the 4 quadrants of a 384 well plate. 200 nl of compounds was dispensed into each well of the 384 plates using the pin tool (columns A and B usually contain DMSO only, and serve as controls), and the plates were incubated for 10-15 minutes at room temperature. 10 μl of substrate solution was dispensed into the 4 quadrants of the 384 well plate. The plate was then incubated for 30 min at room temperature in the dark and read with settings suitable for detecting TAMRA fluorescence (excitation wavelength of 540 nm and emission wavelength of 580 nm). A PHERAStar plate (BMG labtech) reader was used with a gain value of 570. The Intensity/Background (I/Bg), defined as [(Average of columns 1 and 2; DMSO controls)/(Average of columns 23 and 24; no enzyme controls)], were about 5.
The activities of the compounds disclosed in the present disclosure in inhibiting BRCC36 enzyme activity was measured in accordance with the method disclosed in Example 2.

Where two headings read alike, the source gives them in different places.

For orientation: IC50 means the concentration that inhibits the measured activity by half. Turning to `O=C(Nc1cn(C(=O)c2c(Cl)cccc2Cl)nc1C(=O)NC1CCNCC1)c1cccc(CN2CCOCC2)c1`, the half-inhibitory concentration (IC50) (Table 2, method of Example 2) lay within 10 to 50 µM.

For `O=C(Nc1cn(C(=O)c2c(Cl)cccc2Cl)nc1C(=O)NC1CCNCC1)c1cccnc1C(F)(F)F`, the IC50 (Table 2, method of Example 2) lay in the range of 1 to 10 µM.

Regarding `COc1ccc(CCS(=O)(=O)n2cc(NC(=O)c3c(Cl)cccc3Cl)c(C(=O)NC3CCNCC3)n2)cc1`, the IC50 (Table 2, method of Example 2) is 10 to 50 µM.

On to `O=C(NCCCN1CCCC1)c1nn(C(=O)c2c(Cl)cccc2Cl)cc1NC(=O)c1c(Cl)cccc1Cl`, for which the half-inhibitory concentration (IC50) (Table 1, Activity Range Table) lay in the range of 10 to 50 µM.

With `O=C(NC(CCCCNC(=O)c1c(Cl)cccc1Cl)C(=O)NCc1ccccc1)OCc1ccccc1` (centres unmarked), the half-maximal inhibitory concentration (IC50) (Table 2, method of Example 2) was in the range of 10 to 50 µM.

With `CC(C)(C)OC(=O)NCC(=O)NCCCCC(NC(=O)OCc1ccccc1)C(=O)NCc1ccccc1` (centres unmarked), for the setting “Table 2, method of Example 2”, the 50% inhibitory concentration (IC50) was in the range of 10 to 50 µM.

Regarding `COc1ccc(C(=O)Nc2cn(C(=O)c3c(Cl)cccc3Cl)nc2C(=O)NC2CCNCC2)cc1OC`, the concentration for half-maximal inhibition (IC50) (Table 2, method of Example 2) lay within 10 to 50 µM.

For the compound `O=C(Nc1cn(C(=O)c2c(Cl)cccc2Cl)nc1C(=O)NC1CCNCC1)c1cc([N+](=O)[O-])ccc1Cl`, the IC50 (Table 2, method of Example 2) was 1 to 10 µM.

For the compound `O=C(Nc1cn(C(=O)c2c(Cl)cccc2Cl)nc1C(=O)NC1CCNCC1)c1cccc(Cl)c1`, the half-maximal inhibitory concentration (IC50) (Table 2, method of Example 2) lay in the range of 1 to 10 µM.

For the compound `O=C(Nc1cn(C(=O)c2c(Cl)cccc2Cl)nc1C(=O)NC1CCNCC1)c1cccs1`, the concentration for half-maximal inhibition (IC50) (Table 2, method of Example 2) is 10 to 50 µM.

Take `NCCNC(=O)c1nn(C(=O)c2c(Cl)cccc2Cl)cc1NC(=O)c1c(Cl)cccc1Cl`: where the note is “Table 2, method of Example 2”, the IC50 is 1 to 10 µM.

Consider `O=C(Nc1cn(C(=O)c2c(Cl)cccc2Cl)nc1C(=O)NC1CCNCC1)c1ccccc1F`, for which the half-maximal inhibitory concentration (IC50) (Table 2, method of Example 2) lay within 10 to 50 µM.

For `CC(C)C[C@H](NC(=O)OCc1ccccc1)C(=O)N[C@@H](C)C(=O)NCc1ccc(C(=O)NO)cc1`, the IC50 (Table 2, method of Example 2) is 1 to 10 µM.

As for `O=C(O)COc1ccc(S(=O)(=O)n2cc(NC(=O)c3c(Cl)cccc3Cl)c(C(=O)NC3CCNCC3)n2)cc1`, the IC50 (Table 2, method of Example 2) lay in the range of 10 to 50 µM.

With `O=C(NC1CCNCC1)c1nn(S(=O)(=O)c2ccc([N+](=O)[O-])cc2)cc1NC(=O)c1c(Cl)cccc1Cl`, the IC50 (Table 2, method of Example 2) lay in the range of 10 to 50 µM.

For `CC1CN(C(=O)c2nn(C(=O)c3c(Cl)cccc3Cl)cc2NC(=O)c2c(Cl)cccc2Cl)CC(C)N1` (centres unmarked), the IC50 (Table 1, Activity Range Table) lay within 10 to 50 µM.

Turning to `O=C(CNC(=O)CNC(=O)OCc1ccccc1)NCc1ccc(C(=O)NO)cc1`, the IC50 (Table 2, method of Example 2) lay within 10 to 50 µM.

Take `C#CCCCCNC(=O)COc1ccc(S(=O)(=O)n2cc(NC(=O)c3c(Cl)cccc3Cl)c(C(=O)NC3CCNCC3)n2)cc1`: for the setting “Table 2, method of Example 2”, the IC50 is 1 to 10 µM.

For the compound `NCCCCCCOc1ccc(S(=O)(=O)n2cc(NC(=O)c3c(Cl)cccc3Cl)c(C(=O)NC3CCNCC3)n2)cc1`, for the setting “Table 2, method of Example 2”, the concentration for half-maximal inhibition (IC50) fell in the range of 10 to 50 µM.

`Nc1ccc(S(=O)(=O)n2cc(NC(=O)c3c(Cl)cccc3Cl)c(C(=O)NC3CCNCC3)n2)cc1`: the concentration for half-maximal inhibition (IC50) (Table 2, method of Example 2) is 10 to 50 µM.

Turning to `O=C(NC1CCNCC1)c1nn(C(=O)c2c(Cl)cccc2Cl)cc1NCc1ccc(Cl)cc1`, the half-maximal inhibitory concentration (IC50) (Table 2, method of Example 2) was 1 to 10 µM.

For `O=C(Nc1ccncc1)c1nn(C(=O)c2c(Cl)cccc2Cl)cc1NC(=O)c1c(Cl)cccc1Cl`, the IC50 (Table 2, method of Example 2) was in the range of 10 to 50 µM.

Consider `CC(C)C[C@H](NC(=O)OCc1ccccc1)C(=O)N[C@@H](C)C(=O)NCc1cccc(C(=O)NO)c1`, for which the half-maximal inhibitory concentration (IC50) (Table 2, method of Example 2) lay in the range of 1 to 10 µM.

The values are drawn from patent US20260193229A1, “BRISC DEUBIQUITINATING ENZYME INHIBITORS” (THE TRUSTEES OF THE UNIVERSITY OF PENNSYLVANIA, priority 2022, published 2026).
